Target: T1, JAK3 JH2 (Homo sapiens, UniProt P52333)
T1 sequence (P52333 511-790): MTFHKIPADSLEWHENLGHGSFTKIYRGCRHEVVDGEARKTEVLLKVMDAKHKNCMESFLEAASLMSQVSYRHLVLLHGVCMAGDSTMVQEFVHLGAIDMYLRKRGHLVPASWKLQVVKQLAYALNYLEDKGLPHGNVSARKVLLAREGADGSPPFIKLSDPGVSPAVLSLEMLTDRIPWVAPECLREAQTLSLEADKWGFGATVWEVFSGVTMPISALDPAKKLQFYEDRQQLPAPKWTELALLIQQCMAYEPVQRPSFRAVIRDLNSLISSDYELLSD
Test: More sensitive FP binding assay, Bodipy FL-labeled JNJ-7706621 tracer

## c1nc2nc(Nc3ccc(N4CCOCC4)cc3)nc(NC3CCCCC3)c2[nH]1 [Compound 7, Reversine, reference compound]
  IC50: 4.7 µM

Source: article PMC9865020, “Identification of Novel Small Molecule Ligands for JAK2 Pseudokinase Domain” (Pharmaceuticals, 2023)
